# According to the supplement of paper PMC6411743:
# Amino acid sequences for entries named in this document (tags omitted).
# UniProt P59768, whole entry: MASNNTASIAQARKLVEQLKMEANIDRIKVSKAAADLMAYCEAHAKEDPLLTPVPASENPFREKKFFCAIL
# ± gives the standard deviation of the averaged measurements. This is a selection; strong and weak results do not stand in their true shares.
# Molecular target: G3V2N0 and related entries (UniProt P59768)
# Test: NP40-soluble protein abundance relative to vehicle (solubility fold change) (ratio); higher = more soluble protein in presence of ATP
# Method in brief: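 Crude Jurkat lysate, prepared by Dounce homogenisation, was exposed to eight concentrations from 0.1 to 10 mM for 10 min at room temperature and then 3 min at 37 °C. Solubilisation used 0.8% NP40 with benzonase for 60 min at 4 °C, followed by ultracentrifugation and TMT labelling of the supernatant for LC-MS/MS. After vsn normalisation of intensities, each value is the fold change against the detergent-processed vehicle within each replicate, across three independent experiments.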
compound,measurement,setting,value
Nc1ncnc2c1ncn2[C@@H]1O[C@H](COP(=O)(O)OP(=O)(O)OP(=O)(O)O)[C@@H](O)[C@H]1O [adenosine triphosphate],NP40-soluble protein abundance,concentration: 1mM,0.859 ± 0.14
same,NP40-soluble protein abundance,concentration: 2mM,0.803 ± 0.1
same,NP40-soluble protein abundance,concentration: 4mM,0.899 ± 0.084
same,NP40-soluble protein abundance,concentration: 6mM,0.884 ± 0.11
same,NP40-soluble protein abundance,concentration: 8mM,0.818 ± 0.083
same,NP40-soluble protein abundance,concentration: 10mM,0.798 ± 0.13
